Ab-14 heavy chain CDR variants: yeast mating affinities

Data: MIT Lincoln Laboratory AlphaSeq set, Li et al. 2023, doi:10.1038/s41467-023-39022-2, as distributed in FLAb.

Target peptide (SARS-CoV-2 spike, HR2 region): PDVDLGDISGINAS

Each scFv is VH, three GGGGS repeats, VL, as in the parent Ab-14, and differs from it in the CDRs of the heavy chain only.
VH: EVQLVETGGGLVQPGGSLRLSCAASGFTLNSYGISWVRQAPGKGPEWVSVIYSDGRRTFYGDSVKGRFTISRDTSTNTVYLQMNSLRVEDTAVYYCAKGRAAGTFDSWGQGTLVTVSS
VL: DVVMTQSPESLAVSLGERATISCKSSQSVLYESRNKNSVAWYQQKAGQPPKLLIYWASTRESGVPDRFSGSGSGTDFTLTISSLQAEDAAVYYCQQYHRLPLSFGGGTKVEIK

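The parent was found by panning a naive human phage display library on the peptide. These sequences belong to a second round, designed from the earlier measurements on random variants of the parent. Several design methods are mixed in this list. Affinity was read by AlphaSeq, a pooled yeast mating assay with surface-displayed partners. Binding brings cells together so that they mate, and sequencing counts the barcode pairs among the diploids. Scores were corrected for input abundance and mapped to Kd with protein pairs of known affinity run in the same pool. Each pool was mated in six replicate cultures.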

Each variant is given by its three heavy chain CDRs, as the data file delimits them; those of the parent are GFTLNSYGIS, VIYSDGRRTFYGDSVK, GRAAGTFDS.
Variants here have more than six changes.
Affinities are written as log10 Kd with Kd in nM; a lower number is a better binder.
Replicates are averaged; those with no signal do not enter the mean.
A pair that was not seen in that replicate is written "nd"; this usually means weak binding, but a binder can also be missed.
The list is sorted by this average, lowest first, undetected variants last.

CDR-H1	CDR-H2	CDR-H3	log10 Kd, replicates	log10 Kd (nM), mean	signal with controls
GFDLNEYGIS	VIYADGLRTYYADSVK	GQLAGTFDQ	-1.01 -1.11 -1.02 -0.95 -1.08 -0.56	-0.95	1 of 18 (0.54)
GFDLNEYGIS	VIYADGRRTFYIDSVK	GETAGTFDQ	-1.09 -1.08 -0.14 -0.62 -1.26 -0.95	-0.86	0 of 18
GFDLNEYGIS	VIYADGQRTFYTDSVK	GANAGTFDV	-0.49 -0.71 -0.55 -0.69 -0.78 -0.50	-0.62	0 of 18
GFDLNEYGIS	VIYADGRRTYYADDVK	GENAGTFDV	-0.39 -0.49 -1.12 -0.71 -0.79 -0.13	-0.60	0 of 18
GFNLNEYGIS	VIYADGRRTFYADSVK	GENAGTFDV	-0.56 -0.69 -0.47 -0.57 -0.69 -0.53	-0.58	0 of 18
GFDLNEYGIS	VIYADGQRTFYSDSVK	GQLAGTFDV	-0.17 -0.77 -0.23 -0.02 -0.99 -0.63	-0.47	0 of 18
GFDLNEYGIS	VIYADGRRTFYSDKVK	GNVAGTFDI	-0.11 -0.37 -0.54 -0.60 -0.53 -0.60	-0.46	0 of 18
GFDLNEYGIS	VIYADGRRTAYADNVK	GNVAGTFDI	-0.37 -0.27 -0.64 -0.48 -0.93 -0.03	-0.45	0 of 18
GFDLNEYGIS	VIYADGRRTAYTDSVK	GTNAGTFDM	-0.72 -0.57 -0.53 -0.71 0.58 -0.48	-0.40	0 of 18
GFDLNEYGIS	VIYADGRRTQYADSVK	GNQAGTFDS	-0.19 -0.41 -0.56 -0.61 -0.66 0.06	-0.39	0 of 18
GFDLDEYGIS	VIYADGQRTYYADSVK	GNVAGTFDT	-0.47 -0.39 -0.37 -0.52 -0.42 -0.16	-0.39	0 of 18
GFDLEDYGIS	VIYADGMRTAYSDSVK	GNVAGTFDL	0.04 -0.30 -0.44 -0.62 -0.80 -0.21	-0.39	0 of 18
GFDLNEYGIS	VIYADGVRTAYADDVK	GEVAGTFDQ	-0.36 0.01 -1.01 -0.44 -0.41 -0.10	-0.39	1 of 18 (0.89)
GFDLDEYGIS	VIYADGRRTAYADSVK	GETAGTFDT	-0.06 -0.50 -0.04 -0.56 -0.81 -0.23	-0.37	1 of 18 (1.90)
GFDLNEYGIS	VIYADGMRKSYADSVK	GNVAGTFDV	-0.27 0.15 -0.72 -0.37 -0.19 -0.62	-0.34	0 of 18
GFDLNEYGIS	VIYADGRRTAYADSVK	GEAAGTFDF	-0.21 -0.34 -0.37 -0.44 -0.34 0.06	-0.27	0 of 18
GFDLNEYGIS	VIYADGRRTFYKDSVK	GENAGTFDQ	-0.08 0.09 -0.02 -0.68 -0.49 -0.38	-0.26	0 of 18
GFDLNEYGIS	VIYADGKRTYYSDSVK	GNVAGTFDV	-0.09 0.16 -0.18 -0.22 -0.50 -0.05	-0.15	0 of 18
GFDLNEYGIS	VIYADGRRTFYSDSVK	GENGGTFDM	-0.07 0.08 -0.28 -0.11 -0.07 -0.23	-0.11	0 of 18
GFDLNEYGIS	VIYADGMRTAYSDNVK	GNTAGTFDV	-0.05 -0.58 -0.70 0.06 0.42 0.20	-0.11	1 of 18 (0.62)
GFDLDEYGIS	VIYADGMRTAYADDVK	GNQAGTFDT	-0.17 0.67 -0.11 -0.46 0.07 0.06	0.01	0 of 18
KFDIEHYGIS	VIYADGKRSGYSNAVK	GWQAGTFNT	nd -0.64 0.14 1.14 0.11 -0.23	0.10	0 of 18
GFDLNEYGIS	VIYADGRRTQYIDSVK	GNVAGTFDL	nd 0.30 0.30 0.15 -0.73 0.77	0.16	0 of 18
GFDLDEYGIS	VIYADGMRTAYSDSVK	GENAGTFDV	nd 0.37 0.39 -0.80 nd 1.02	0.24	0 of 18
GFSLEEQGIS	VIYADGSRRAYAQDVK	GGHAVGFVV	-0.04 0.93 nd 0.94 0.52 0.32	0.53	0 of 18
GFDLNEYGIS	VIYADGQRKAYADDVK	GENAGTFDV	0.40 0.24 0.60 0.35 1.18 0.52	0.55	0 of 18
GFDLNEYGIS	VIYADGRRTAYIDSVK	GEAAGTFDV	1.07 1.14 0.30 0.40 0.43 0.17	0.58	0 of 18
GFDIEDYGIS	VIYADGVRAMYKESFK	GQIAGTFLI	nd nd nd nd nd 0.99	0.99	0 of 18
GFDLNEYGIS	VIYADGRRTFYTDSVK	GNAAGTFNV	0.92 1.54 1.22 0.98 1.05 1.67	1.23	0 of 18
GFVLDEFGIS	VIYADGRRTAYTQDVK	GEKAGDFSF	3.04 1.04 nd 1.07 1.29 2.35	1.76	0 of 18
GGDIQEYGIS	VIYADGQRASYADAVK	GNIGGIFSD	1.32 1.41 1.81 2.02 1.93 2.17	1.77	0 of 18
GFSLGEYGIS	VIYADGERTNYVSNFK	GVLAGTFVL	nd nd nd nd nd nd	nd	0 of 18
GFDLGEYGIS	VIYADGQRRAYQDAVK	GHSSVDYLA	nd nd nd nd nd nd	nd	0 of 18
GFELDEYGIS	VIYADGKRKAYDDAVK	GFTVGVKLI	nd nd nd nd nd nd	nd	0 of 18
GKDLLEYGIS	VIYADGIRVMYQNQVK	GNVAGFFTL	nd nd nd nd nd nd	nd	0 of 18
GFKLDEYGIS	VIYADGIRTVYADDVK	GLLKGHSLT	nd nd nd nd nd nd	nd	1 of 18 (2.39)
GFDLEDYGIS	VIYADGVRTAYSQNSK	GENGGALYI	nd nd nd nd nd nd	nd	0 of 18
GFNLDEYGIS	VIYADGRRTFYADSVK	GGNAGTFDV	nd nd nd nd nd nd	nd	0 of 18
GFQLDEVGIS	VIYADGMRTAYADSFK	GVVSTIIGI	nd nd nd nd nd nd	nd	0 of 18
GKSLDEYGIS	VIYADGTRAFYANSVK	GLITMVFGK	nd nd nd nd nd nd	nd	0 of 18
GSNLDEYGIS	VIYADGMRQAYIEDVK	GQSGVSVFN	nd nd nd nd nd nd	nd	0 of 18
GFNLEEYGIS	VIYADGFRASYQQKVK	GQDGSVMLD	nd nd nd nd nd nd	nd	0 of 18
GFNLLEYGIS	VIYADGRRTFYTDSFK	GGSGKDLYT	nd nd nd nd nd nd	nd	0 of 18

Values of this round are not directly comparable with the first-round values of the same sequences.
The parent sequence was in this pool as ten entries: three were never detected, three once, and four in most replicates, with averages from 0.34 to 2.37.
As a blank, each scFv also met three strains without target: over all heavy chain designs, 1% of these pairings were detected, typically at 2.08 and seldom below 0.84. For each scFv, signals with the empty controls are counted beside the result, with their mean in brackets.
In the paper, a design with two or fewer of six values counts as a poor binder.